From patent publication US5854004A, “Process for screening substances capable of modulating a receptor-dependent cellular signal transmission path” (Boehringer Ingleheim GmbH, priority 1991, dated 1998)

Amino acid sequences for entries named in this document (tags omitted).
UniProt P21452, whole entry: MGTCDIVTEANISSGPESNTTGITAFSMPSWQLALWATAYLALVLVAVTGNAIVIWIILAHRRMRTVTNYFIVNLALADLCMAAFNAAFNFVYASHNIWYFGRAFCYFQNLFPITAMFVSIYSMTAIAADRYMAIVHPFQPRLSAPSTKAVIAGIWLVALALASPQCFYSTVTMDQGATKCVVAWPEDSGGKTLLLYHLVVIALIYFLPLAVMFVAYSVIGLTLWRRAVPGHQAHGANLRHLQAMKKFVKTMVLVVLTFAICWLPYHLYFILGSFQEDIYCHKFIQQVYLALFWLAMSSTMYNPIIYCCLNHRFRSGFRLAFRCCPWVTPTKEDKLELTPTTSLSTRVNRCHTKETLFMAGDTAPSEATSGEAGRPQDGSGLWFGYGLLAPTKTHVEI

Biological target: human neurokinin 2-receptor (Homo sapiens, UniProt P21452)
Assay: Luciferase activity in NK2-test cell line A20/NK2-122
Conditions: dosage activity curves, FIG. 29A

neurokinin A: neurokinin (Sigma), agonist at neurokinin 2-receptor
relative effectiveness of the neurokinins: NKA>neuromedin K (NMK)>substance P (SP)
